Organism: Homo sapiens
Assay: Selectivity index, ratio of IC50 for inhibition of human recombinant HDAC1 to IC50 for inhibition of human recombinant HDAC6

Structure (SMILES): CN(Cc1ccc(C(=O)NO)cc1F)CC12CC3CC(CC(C3)C1)C2
- Ratio IC50: > 16000

Reference: ChEMBL document CHEMBL4145695, “Histone Deacetylase 6-Selective Inhibitors and the Influence of Capping Groups on Hydroxamate-Zinc Denticity” (J Med Chem, 2018)
